Measured values from ChEMBL document CHEMBL3639007, “Cyclohexyl amide derivatives as CRF receptor antagonists” (2014).

Assays:
[1] = molecular target: T1, Corticotropin-releasing factor receptor 1 (Homo sapiens, UniProt P34998); experiment: (§1) Homogeneous Time-Resolved Fluorescence Assay: Chinese hamster ovary (CHO) cells expressing either the human or rat recombinant CRF-1 or human CRF-2alpha (Chen et al, Proc Natl Acad Sci USA 90, 8967-8971, 1993; Liaw et al, Endocrinology 137, 72-77, 1996) are propagated in Dulbecco's modified Eagle medium supplemented with 10% foetal calf serum, non-essential amino acids, 100 U/ml penicillin, 100 mg/l streptomycin and 1 g/l geneticin. CHO cells expressing the rat CRF-2beta receptor (Wu et al, Endocrinology 148, 1675-1687, 2007) are propagated in HAM's-F12 Glutamax supplemented with 10% foetal calf serum, 100 IU/ml penicillin, 100 mg/l streptomycin, 600 ug/ml hygromycin, 10 ug/ml blasticidin and induced with 1 ug/ml of tetracyclin for 24 hours prior to experimentation. For cyclic AMP determinations the Homogeneous Time-Resolved Fluoresce (HTRF) CAMP dynamic 2 kit (Cisbio International, France) was used as per manufacturers' instructions.; type: cell-based
T1 sequence (P34998 whole entry): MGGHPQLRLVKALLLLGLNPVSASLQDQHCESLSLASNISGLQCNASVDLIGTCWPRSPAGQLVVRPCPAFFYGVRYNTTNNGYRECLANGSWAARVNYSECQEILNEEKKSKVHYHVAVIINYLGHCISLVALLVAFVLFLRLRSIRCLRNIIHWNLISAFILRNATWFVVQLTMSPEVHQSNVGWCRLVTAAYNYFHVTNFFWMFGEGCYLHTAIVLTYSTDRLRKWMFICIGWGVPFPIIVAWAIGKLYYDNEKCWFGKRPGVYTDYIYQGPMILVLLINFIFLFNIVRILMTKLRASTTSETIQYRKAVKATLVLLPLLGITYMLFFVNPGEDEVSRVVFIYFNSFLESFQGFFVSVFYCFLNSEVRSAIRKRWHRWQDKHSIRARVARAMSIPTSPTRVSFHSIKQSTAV

[2] = molecular target: T2, Corticotropin-releasing factor receptor 2 (Homo sapiens, UniProt Q13324); experiment: as §1; type: cell-based
T2 sequence (Q13324 whole entry): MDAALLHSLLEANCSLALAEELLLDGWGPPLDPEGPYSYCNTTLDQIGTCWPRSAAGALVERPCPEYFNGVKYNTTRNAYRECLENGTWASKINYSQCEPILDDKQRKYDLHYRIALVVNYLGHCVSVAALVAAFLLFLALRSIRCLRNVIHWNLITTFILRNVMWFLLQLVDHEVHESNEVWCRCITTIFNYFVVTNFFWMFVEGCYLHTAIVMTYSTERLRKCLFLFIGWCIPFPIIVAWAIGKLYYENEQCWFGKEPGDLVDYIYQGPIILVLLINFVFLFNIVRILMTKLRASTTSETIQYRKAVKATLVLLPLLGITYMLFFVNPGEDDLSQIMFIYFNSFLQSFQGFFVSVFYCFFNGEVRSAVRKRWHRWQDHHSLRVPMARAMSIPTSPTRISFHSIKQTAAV

Row | IC50 [1] [µM] | IC50 [2] [µM] | SMILES
1 | 0.126 |  | COc1cc(C)n(C[C@H]2CC[C@H](NC(=O)c3cc(C(F)(F)F)ccc3Cl)CC2)n1
2 | 0.131 |  | Cc1ncc(Cl)cc1C(=O)N[C@H]1CC[C@@H](Cn2nc(-c3ccccc3)cc2C)CC1
3 | 0.013 |  | CCc1cc(C)n(C[C@H]2CC[C@H](NC(=O)c3cc(C(F)(F)F)ccc3Cl)CC2)n1
4 | 0.04 |  | Cc1cc(C(C)C)n(C[C@H]2CC[C@H](NC(=O)c3cc(Cl)cnc3C)CC2)n1

Continued, compound first:

Row | SMILES | IC50 [1] [µM] | IC50 [2] [µM]
5 | CCc1nn(C[C@H]2CC[C@H](NC(=O)c3cc(C(F)(F)F)ccc3Cl)CC2)c(C)c1Cl | 0.049 | 
6 | Cc1cnn(C[C@H]2CC[C@H](NC(=O)c3cc(C(F)(F)F)ccc3Cl)CC2)c1C | 0.214 | 
7 | COc1ccc(-c2c(NC[C@H]3CC[C@H](NC(=O)c4cc(C(F)(F)F)ccc4Cl)CC3)n[nH]c2C)c(Cl)c1 |  | 0.727
8 | O=C(O)Cc1ccc(NC[C@H]2CC[C@@H](NC(=O)c3cc(C(F)(F)F)ccc3Cl)CC2)cc1 | 0.948 | 
9 | O=C(N[C@H]1CC[C@H](Cn2cc3c(n2)CCC3)CC1)c1cc(C(F)(F)F)ccc1Cl | 0.147 | 
